The chains behind the UniProt entries cited, without tags or fusion partners.
UniProt P34972, whole entry: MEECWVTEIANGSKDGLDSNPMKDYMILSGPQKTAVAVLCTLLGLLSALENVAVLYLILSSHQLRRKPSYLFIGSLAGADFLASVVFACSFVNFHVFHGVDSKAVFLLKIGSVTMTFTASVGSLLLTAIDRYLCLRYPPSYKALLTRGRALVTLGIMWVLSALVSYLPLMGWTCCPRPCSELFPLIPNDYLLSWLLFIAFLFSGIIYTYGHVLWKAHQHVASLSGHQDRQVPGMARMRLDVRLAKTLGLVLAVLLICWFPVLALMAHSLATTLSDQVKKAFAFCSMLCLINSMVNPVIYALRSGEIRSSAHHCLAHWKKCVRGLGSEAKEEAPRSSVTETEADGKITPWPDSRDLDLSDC

According to ChEMBL document CHEMBL6078669, “Stereoisomers of cannabidiols and their pharmacological activities - A potentially novel direction for cannabinoids” (Bioorg Med Chem, 2025):

Key:
[1] = species on record: Homo sapiens; experiment: Selectivity ratio of Ki for human CB1 receptor extracted from HEK293 cell membrane to Ki for human CB2 receptor extracted from HEK293 cell membrane
[2] = biological target: T1, Cannabinoid receptor 2 (Homo sapiens, UniProt P34972); experiment: Agonist activity at human CB2 receptor extracted from CHO cell membrane assessed as increase in [35S]GTPgammaS binding incubated for 60 mins by liquid scintillation spectrometric analysis; assay type: functional, cell membranes
[3] = Selectivity index, ratio of Ki for Sabra rat brain synaptosome CB1 receptor to Ki for CB2 receptor (unknown origin) extracted from green monkey COS-7 cells
[4] = biological target: T1, Cannabinoid receptor 2; experiment: Binding affinity to CB2 receptor (unknown origin) assessed as inhibition constant

SMILES: C=C(C)[C@@H]1CCC(C)=C[C@H]1c1c(O)cc(CCCCC)c(C(=O)OCC(O)CCC)c1O (some centres not stated)
- Ratio Ki [1]: 8.1

SMILES: CCCCCCC(C)(C)c1cc(OC)c([C@H]2C=C(CO)[C@H]3C[C@@H]2C3(C)C)c(OC)c1
- EC50 [2]: 5.57 nM

SMILES: C=C(C)[C@H]1CCC(C)=C[C@@H]1c1c(O)cc(C(C)(C)CCCCCC)cc1O
- Ratio Ki [3]: 0.08

SMILES: CCCCCCC(C)(C)c1cc(OC)c([C@@H]2C=C(CO)[C@@H]3C[C@H]2C3(C)C)c(OC)c1 [ONTERNABEZ]
- Ki [4]: > 1000 nM

SMILES: C=C(C)[C@H]1CCC(C)=C[C@@H]1c1c(O)cc(CCC)cc1O
- Ratio Ki [1]: 8.9

SMILES: C=C(C)[C@H]1CCC(C)=C[C@@H]1c1c(O)cc(CCCCC)cc1O
- Ratio Ki [3]: 4.1

SMILES: C=C(C)[C@H]1CCC(CO)=C[C@@H]1c1c(O)cc(C(C)(C)CCCCCC)cc1O
- Ratio Ki [3]: 0.05
